{"source": "patent US11713337B2", "about": "“Peptide, compositions and method for delivery of agents into cells and tissues” (priority 2019, dated 2023)", "tested_on": "MNU induced apoptosis in the retina", "test": "MNU induced apoptosis in the retina, TUNEL staining", "assay_type": "in vivo, C57BL/6J mice", "conditions": "1.4 μg XIAP with or without 0.4 μg Nuc1 intravitreal 4 h before 50 mg/kg MNU i.p.; eyes 24 hours later; ONL", "text": "Programmed cell death or apoptosis is a common pathway activated as a consequence of retinal degeneration in diseases such as retinitis pigmentosa (Cottet and Schorderet, 2009). […] As an alternative to transgene delivery, one may envisage delivery of XIAP protein for the treatment of retinal degenerative diseases. This method of treatment is analogous to the current standard of care for the wet form of age-related macular degeneration (AMD, see below), whereby a recombinant protein (e.g. aflibercept) is injected intravitreally to target VEGF. Relative to gene delivery, protein delivery may be more readily titrated for dosing regimens. lntraperitoneal injection of N-methyl-N-nitrosourea (MNU) in mice causes selective induction of apoptosis in the outer nuclear layer (ONL) of the retina and thus this model is useful for testing the efficacy of inhibitors of apoptosis ([…] et al., 2003). […] After 4 h, mice were injected intraperitoneally with 50 mg/lkg MNU. Some mice were injected intraperitoneally with PBS only, as a measure of background apoptosis in the retina. After an additional 24 hours, the eyes of mice were enucleated and processed as above. […] The eye sections were imaged and used for quantification of TUNEL positive cells using ImageJ (FIJI version and plug in) as described previously ([…] et al., 2015)."}
{"substance": "XIAP: purified functional recombinant human XIAP", "values": [{"measurement": "reduction in the number of TUNEL positive cells relative to MNU only", "result": 2.2, "unit": "%"}]}
